SMILES strings stand for the structures.

The chains behind the UniProt entries cited, without tags or fusion partners.
UniProt Q30W70, whole entry, looked up: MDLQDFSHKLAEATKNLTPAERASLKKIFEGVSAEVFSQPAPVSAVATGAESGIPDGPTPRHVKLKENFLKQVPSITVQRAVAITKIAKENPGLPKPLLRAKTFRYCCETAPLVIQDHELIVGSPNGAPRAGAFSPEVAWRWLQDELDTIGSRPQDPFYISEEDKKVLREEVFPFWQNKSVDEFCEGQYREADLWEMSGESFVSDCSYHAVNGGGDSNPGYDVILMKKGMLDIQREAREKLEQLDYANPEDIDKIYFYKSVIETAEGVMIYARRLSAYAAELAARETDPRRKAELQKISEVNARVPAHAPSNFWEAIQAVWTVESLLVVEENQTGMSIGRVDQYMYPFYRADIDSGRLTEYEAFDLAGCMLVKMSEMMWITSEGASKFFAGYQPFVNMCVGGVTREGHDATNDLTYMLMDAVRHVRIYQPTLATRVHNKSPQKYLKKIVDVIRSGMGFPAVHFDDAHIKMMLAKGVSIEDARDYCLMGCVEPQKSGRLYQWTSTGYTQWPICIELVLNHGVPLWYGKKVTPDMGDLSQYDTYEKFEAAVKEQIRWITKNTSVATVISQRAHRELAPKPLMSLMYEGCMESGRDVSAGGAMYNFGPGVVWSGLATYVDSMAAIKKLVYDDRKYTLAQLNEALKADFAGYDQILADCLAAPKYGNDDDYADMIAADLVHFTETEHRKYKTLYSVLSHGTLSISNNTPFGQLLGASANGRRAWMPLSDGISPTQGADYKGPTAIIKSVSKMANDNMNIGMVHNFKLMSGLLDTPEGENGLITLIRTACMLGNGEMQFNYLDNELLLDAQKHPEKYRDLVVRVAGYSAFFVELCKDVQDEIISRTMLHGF

The target of this test is Choline trimethylamine-lyase (Oleidesulfovibrio alaskensis (strain ATCC BAA-1058 / DSM 17464 / G20), UniProt Q30W70).

Consider `CN1CCCC(O)C1` (stereo unspecified), for which the IC50 came out at 2000 µM.
